Bioassay records as filed in PubChem.
Compounds with a hit are over-represented: about 1.7% of the library has one in this group of screens.
CAL PDZ FP-1 = blocks peptide binding to the human CAL PDZ domain. inhibition, % at 24.9 µM. Q9HD26. hit rate 0.92% among 300,000. purified CAL PDZ, TMR-peptide fluorescence polarization, 1 h. AID 602252;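 active = mean inhibition of at least 30% with at least half of replicates also reaching 30%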
CAL PDZ FP-2 = human CAL PDZ-peptide interaction inhibition. AID 504414. hit rate 0.02% among 330,000. inhibition, % at 20 µM. purified CAL PDZ, TMR-peptide fluorescence polarization, 1 h. Q9HD26;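 active = highest replicate inhibition of at least 40%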
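Material: tagged CAL PDZ domain; buffer or medium: 25 mM sodium phosphate pH 7.4, 150 mM NaCl, TCEP, IgG, Thesit; compound dosing: single point, 20 µM; schedule: 1 h incubation at room temperature before polarization reading; measured by: FP readout, S and P plane fluorescence; read-out basis: percent inhibition from loss of millipolarization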
DYRK1A inh = inhibitors of rat Dyrk1A kinase; ADP-Glo luminescence, NFATc1 peptide; inhibition, % at 12.5 µM; hit rate 0.43% among 310,000; AID 504441; in the data active = inhibition above about 50%
CDK5 inh = CDK5/p35 (human) kinase inhibition; Q00535+Q15078; Recombinant CDK5/p35, ADP-Glo luminescence, 60 min; inhibition, % at 10 µM; hit rate 0.01% among 330,000; AID 488839;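 active = highest replicate inhibition of at least 50% and at least 75% of replicates reaching 50%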
UUG fidelity = modulators of start codon recognition fidelity in yeast; AID 602363; activity score, % at 18.7 µM; S. cerevisiae UUG-firefly luciferase reporter, luminescence/redox ratio; actives 0.13% (n = 350,000);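 active = replicate mean at a twofold rise or more, about +100% in these data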;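 note: firefly luciferase made from a UUG start codon reports start codon fidelity; reporter light over untreated wells divided by growth signal over untreated wells; some hits fall short of that in this replicate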
dFosB act = mouse delta FosB homodimer activation; purified delta FosB, TAMRA-CDK5 oligo fluorescence polarization; percent of positive-control signal above neutral wells; activation, % at 25 µM; AID 493131; P13346; hit rate 0.99% among 340,000;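 active = mean activation above about 17%, with every replicate also reaching it, limit read from the data, passing the limit was not always enough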
Dyrk1A artifact = counter-screen for Dyrk1A inhibitors: ADP-Glo luciferase artifacts. shares compounds with DYRK1A inh. ADP-Glo luciferase artifact assay, no Dyrk1A, luminescence. AC50, µM (doses to about 12 µM). 1,300 tested, under 10 active. AID 588348;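 active = fitted half-maximal dose AC50 no more than ten times the top valid tested dose, with luminescence dropping as dose rises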
Numbers stand for hits.

How did Cc1ccccc1NC1=C/C(=N\S(=O)(=O)c2ccc(C(=O)O)cc2)c2ccccc2C1=O do in these assays?
CAL PDZ FP-1: inactive; CAL PDZ FP-2: inactive; DYRK1A inh: 62.2; CDK5 inh: inactive; UUG fidelity: inactive; dFosB act: inactive; Dyrk1A artifact: inactive

What do the screens show for `Cc1ccccc1NC1=C/C(=N\S(=O)(=O)c2cccs2)c2ccccc2C1=O`?
CAL PDZ FP-1: inactive; CAL PDZ FP-2: inactive; DYRK1A inh: inactive; CDK5 inh: inactive; UUG fidelity: inactive; dFosB act: inactive

How did O=c1/c(=C/c2ccccn2)sc2n1CN(c1ccccc1)CN=2 do in these assays?
CAL PDZ FP-1: inactive; CAL PDZ FP-2: inactive; DYRK1A inh: inactive; CDK5 inh: inactive; UUG fidelity: inactive; dFosB act: inactive

What do the screens show for `COc1cc(N2CN=c3s/c(=C\c4ccccn4)c(=O)n3C2)cc(OC)c1OC`?
CAL PDZ FP-1: inactive; CAL PDZ FP-2: inactive; DYRK1A inh: 53.2; CDK5 inh: inactive; UUG fidelity: inactive; dFosB act: inactive; Dyrk1A artifact: inactive

What do the screens show for `O=c1cc(-c2ccc(O)cc2)oc2c1ccc1ccccc12`?
CAL PDZ FP-1: inactive; CAL PDZ FP-2: inactive; CDK5 inh: inactive; dFosB act: inactive

Results for O=c1cc(-c2ccco2)oc2c1ccc1ccccc12 ?
CAL PDZ FP-1: inactive; CAL PDZ FP-2: inactive; DYRK1A inh: 59.0; CDK5 inh: inactive; UUG fidelity: inactive; dFosB act: inactive; Dyrk1A artifact: inactive

How did Cc1cc(O)c2c(c1)C(=O)c1cc(O)cc(O)c1C2=O do in these assays?
CAL PDZ FP-1: inactive; CAL PDZ FP-2: inactive; DYRK1A inh: 66.4; CDK5 inh: inactive; UUG fidelity: inactive; dFosB act: inactive; Dyrk1A artifact: inactive

What do the screens show for `O=C1c2cc(O)cc(O)c2C(=O)c2c1cc(O)c([C@@H](CO)CCO)c2O`?
CAL PDZ FP-1: inactive; CAL PDZ FP-2: inactive; DYRK1A inh: inactive; CDK5 inh: inactive; UUG fidelity: inactive; dFosB act: inactive

How did CCC(=O)N(C)C[C@H]1Oc2cc(-c3ccc(F)cc3)ccc2S(=O)(=O)N([C@@H](C)CO)C[C@@H]1C do in these assays?
UUG fidelity: inactive

Results for O=S(=O)(Nc1c(S(=O)(=O)c2ccccc2)c2nc3ccccc3nc2n1C1CCCCC1)c1ccccc1 ?
CAL PDZ FP-1: inactive; CAL PDZ FP-2: inactive; DYRK1A inh: 74.9; CDK5 inh: inactive; UUG fidelity: inactive; dFosB act: inactive; Dyrk1A artifact: inactive

What do the screens show for `O=C(C[C@@H]1C=C[C@@H](NC(=O)c2ccc(F)cc2)[C@H](CO)O1)NCCc1ccccc1`?
UUG fidelity: inactive

What do the screens show for `C[C@@H]1CCCCO[C@@H](CN(C)S(C)(=O)=O)[C@H](C)CN([C@@H](C)CO)C(=O)c2cc(N(C)C)ccc2O1`?
UUG fidelity: inactive

What do the screens show for `C=CCNC(=S)Nc1ccc2cn[nH]c2c1`?
CAL PDZ FP-1: inactive; CAL PDZ FP-2: inactive; DYRK1A inh: 70.0; CDK5 inh: inactive; dFosB act: inactive; Dyrk1A artifact: inactive

How did NC(=S)Nc1ccc2cn[nH]c2c1 do in these assays?
CAL PDZ FP-1: inactive; CAL PDZ FP-2: inactive; DYRK1A inh: inactive; CDK5 inh: inactive; dFosB act: inactive

What do the screens show for `Cc1cc(C)cc(NC(=S)Nc2ccc3cn[nH]c3c2)c1`?
CAL PDZ FP-1: inactive; CAL PDZ FP-2: inactive; DYRK1A inh: inactive; CDK5 inh: inactive; dFosB act: inactive

Results for Cc1ccc(NC(=S)Nc2ccc3cn[nH]c3c2)cc1 ?
CAL PDZ FP-1: inactive; CAL PDZ FP-2: inactive; DYRK1A inh: 63.4; CDK5 inh: inactive; dFosB act: inactive; Dyrk1A artifact: inactive

How did CCCNC(=O)C[C@@H]1CC[C@H]2[C@H](COc3ccc(NC(=O)c4cccc(F)c4)cc3C(=O)N2C)O1 do in these assays?
UUG fidelity: inactive

Results for Cn1cnc2c(=O)sc3ccccc3c21 ?
CAL PDZ FP-2: inactive; DYRK1A inh: 70.4; CDK5 inh: inactive; UUG fidelity: inactive; dFosB act: inactive; Dyrk1A artifact: inactive

What do the screens show for `Oc1ccc(-c2nc(-c3ccc(O)c(O)c3)cs2)cc1`?
CAL PDZ FP-1: inactive; CAL PDZ FP-2: inactive; DYRK1A inh: 71.6; CDK5 inh: inactive; UUG fidelity: inactive; dFosB act: inactive; Dyrk1A artifact: inactive

How did O=C(Nc1cccc(Cl)c1)ON=C1c2ccccc2-c2ccccc21 do in these assays?
CAL PDZ FP-1: inactive; CAL PDZ FP-2: inactive; DYRK1A inh: 50.3; CDK5 inh: inactive; dFosB act: inactive; Dyrk1A artifact: inactive

What do the screens show for `O=C(Nc1cccc(Cl)c1)Nc1cccc(Cl)c1`?
CAL PDZ FP-1: inactive; CAL PDZ FP-2: inactive; DYRK1A inh: inactive; CDK5 inh: inactive; UUG fidelity: inactive; dFosB act: inactive

What do the screens show for `CCCC(=O)Nc1nc(-c2ccc3c(c2)OCCO3)cs1`?
CAL PDZ FP-2: inactive; DYRK1A inh: 54.6; CDK5 inh: inactive; UUG fidelity: inactive; dFosB act: inactive; Dyrk1A artifact: inactive

What do the screens show for `O=C(O)C(=O)Nc1nc(-c2ccc3c(c2)OCCO3)cs1`?
CAL PDZ FP-1: inactive; CAL PDZ FP-2: inactive; DYRK1A inh: inactive; CDK5 inh: inactive; UUG fidelity: inactive; dFosB act: inactive

Results for CSCC(=O)Nc1nc(-c2ccc3c(c2)OCCO3)cs1 ?
CAL PDZ FP-1: inactive; CAL PDZ FP-2: inactive; DYRK1A inh: 68.4; CDK5 inh: inactive; dFosB act: inactive; Dyrk1A artifact: inactive

What do the screens show for `O=C(CSCC(=O)Nc1nc(-c2ccc3c(c2)OCO3)cs1)Nc1nccs1`?
CAL PDZ FP-1: inactive; CAL PDZ FP-2: inactive; DYRK1A inh: inactive; CDK5 inh: inactive; UUG fidelity: inactive; dFosB act: inactive

How did C[C@@H]1CN([C@H](C)CO)C(=O)c2cccc(NS(C)(=O)=O)c2O[C@@H]1CN(C)C(=O)Nc1ccc(F)cc1 do in these assays?
UUG fidelity: inactive

What do the screens show for `Oc1ccc2c(ccc3[nH]cnc32)c1`?
CAL PDZ FP-1: inactive; CAL PDZ FP-2: inactive; DYRK1A inh: 79.0; CDK5 inh: inactive; dFosB act: inactive; Dyrk1A artifact: inactive

How did Cc1ccc(-c2cc(O)cc3sc(=O)oc23)cc1C do in these assays?
CAL PDZ FP-1: inactive; CAL PDZ FP-2: inactive; DYRK1A inh: 54.2; CDK5 inh: inactive; dFosB act: inactive; Dyrk1A artifact: inactive

What do the screens show for `CC(C)=CCOc1c2ccoc2cc2oc(=O)ccc12`?
CAL PDZ FP-1: inactive; CAL PDZ FP-2: inactive; DYRK1A inh: inactive; CDK5 inh: inactive; UUG fidelity: inactive; dFosB act: inactive

How did CC(=O)O[C@H](COc1c2ccoc2cc2oc(=O)ccc12)C(C)(C)O do in these assays?
CAL PDZ FP-1: inactive; CAL PDZ FP-2: inactive; DYRK1A inh: 68.2; CDK5 inh: inactive; UUG fidelity: inactive; dFosB act: inactive; Dyrk1A artifact: inactive

Results for CC(C)(O)[C@H](O)COc1c2ccoc2cc2oc(=O)ccc12 ?
CAL PDZ FP-1: inactive; CAL PDZ FP-2: inactive; DYRK1A inh: inactive; CDK5 inh: inactive; UUG fidelity: inactive; dFosB act: inactive
